Source: ChEMBL document CHEMBL1123414, “Neurochemistry of aging. 1. Toxins for an animal model of Alzheimer's disease” (J Med Chem, 1986)

The chains behind the UniProt entries cited, without tags or fusion partners.
UniProt P08483, whole entry: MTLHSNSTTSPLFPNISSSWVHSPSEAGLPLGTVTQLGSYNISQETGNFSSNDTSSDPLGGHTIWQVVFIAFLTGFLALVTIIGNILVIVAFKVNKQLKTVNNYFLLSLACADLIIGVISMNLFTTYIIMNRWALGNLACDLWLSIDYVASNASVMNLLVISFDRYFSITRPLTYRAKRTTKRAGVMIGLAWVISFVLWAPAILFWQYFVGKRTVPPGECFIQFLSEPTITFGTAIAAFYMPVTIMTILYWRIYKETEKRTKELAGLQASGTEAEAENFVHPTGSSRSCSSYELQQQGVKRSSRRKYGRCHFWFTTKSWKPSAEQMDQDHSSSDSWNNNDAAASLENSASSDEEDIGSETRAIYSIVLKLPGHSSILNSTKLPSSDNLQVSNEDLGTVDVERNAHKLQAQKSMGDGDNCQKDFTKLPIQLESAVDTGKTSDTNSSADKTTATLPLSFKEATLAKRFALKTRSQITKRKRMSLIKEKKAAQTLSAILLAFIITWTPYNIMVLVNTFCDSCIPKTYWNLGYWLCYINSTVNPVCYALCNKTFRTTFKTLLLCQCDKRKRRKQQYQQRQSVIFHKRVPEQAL
UniProt Q8BGY9, whole entry: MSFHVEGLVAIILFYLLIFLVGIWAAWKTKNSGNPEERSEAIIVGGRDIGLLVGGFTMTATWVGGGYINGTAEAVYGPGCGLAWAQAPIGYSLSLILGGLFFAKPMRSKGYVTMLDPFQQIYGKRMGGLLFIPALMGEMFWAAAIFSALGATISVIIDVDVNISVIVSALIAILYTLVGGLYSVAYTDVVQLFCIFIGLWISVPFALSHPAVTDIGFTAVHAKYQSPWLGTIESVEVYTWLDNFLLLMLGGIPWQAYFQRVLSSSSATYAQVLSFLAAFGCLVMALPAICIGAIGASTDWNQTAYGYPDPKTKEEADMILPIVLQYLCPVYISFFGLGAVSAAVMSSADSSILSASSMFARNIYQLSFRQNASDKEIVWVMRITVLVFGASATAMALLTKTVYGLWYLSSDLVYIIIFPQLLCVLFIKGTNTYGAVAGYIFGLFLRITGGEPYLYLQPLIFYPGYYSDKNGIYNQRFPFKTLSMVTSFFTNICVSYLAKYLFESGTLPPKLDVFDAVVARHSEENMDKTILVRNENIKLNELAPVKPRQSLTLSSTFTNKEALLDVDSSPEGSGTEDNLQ

What was measured:
[1] = molecular target: Muscarinic acetylcholine receptor M3 (Rattus norvegicus, UniProt P08483); assay: Compound was tested in vitro for its ability to displace [3H]QNB from brain Muscarinic acetylcholine receptor by 50 %
[2] = molecular target: High affinity choline transporter 1 (Mus musculus, UniProt Q8BGY9); assay: In vitro ability to inhibit the transport of [3H]choline in to high affinity choline transport system HAChT

Row | SMILES | IC50 [1] | IC50 [2]
1 | OCC[N+]1(C2CC2)CC1 | 6.25 µM | 
2 | CC(C)[N+]1(CCO)CC1 |  | 2.6 µM
